Data: paper PMC9895061 (Signal Transduction and Targeted Therapy, 2023)

Protein sequences, listed by entry. Tags and fused reporters are not part of them. Lines headed by an entry give the natural chain unless they say otherwise; changes in a name come on top.
UniProt Q06830: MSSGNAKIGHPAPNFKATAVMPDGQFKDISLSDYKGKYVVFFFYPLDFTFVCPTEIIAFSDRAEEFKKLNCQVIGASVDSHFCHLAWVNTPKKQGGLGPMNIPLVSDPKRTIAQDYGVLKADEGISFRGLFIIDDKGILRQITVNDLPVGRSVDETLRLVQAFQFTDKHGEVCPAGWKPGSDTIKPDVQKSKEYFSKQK

Legend:
PRDX1 [1] = target: T1, PRDX1 (Homo sapiens, UniProt Q06830); test: Determination of Kinact and Ki for inhibition of PRDX1's peroxidase activity; format: biochemical
PRDX1 [2] = target: T1, PRDX1; test: Trx-TrxR-NADPH coupling peroxiredoxin activity assay, PRDX1; format: biochemical
[3] = target: recombinant wild type PRDX1 (Homo sapiens, UniProt Q06830); test: Surface plasmon resonance (SPR) assay; details: read-out: binding affinity KD with PRDX1 protein, Biacore T200, kinetic analysis

`COC(=O)[C@H](C)NC(=O)N[C@]1(C)CC[C@]2(C)CC[C@]3(C)C4=CC=C5C(=CC(=O)C(O)=C5C)[C@]4(C)CC[C@@]3(C)[C@@H]2C1` [19-048, Methyl (((2R,4aS,6aS,12bR,14aS,14bR)-10-hydroxy-2,4a,6a,9,12b,14a-hexamethyl-11-oxo-1,2,3,4,4a,5,6,6a,11,12b,13,14,14a,14b-tetradecahydropicen-2-yl)carbamoyl)-L-alaninate] was tested, and the Ki (PRDX1 [1]; covalent reactivity (Kinact/Ki determination)) was 1880 nM, the Kinact (PRDX1 [1]; incubation 0-100 min) was 0.13 ± 0.094 min⁻¹ and the “selectivity for PRDX1 among the human PRDX protein family” value (PRDX1 [2]; PRDX1 vs PRDX2~PRDX6 peroxidase activity, as compared to Celastrol) was “approximately 500 fold”. It also gave an IC50 (PRDX1 [2]; read-out: IC50 against the peroxidase activity of PRDX1, recombinant PRDX1, 1.5 h incubation, mean ± SEM, triplicate) of 210 nM and a Kd [3] of 250 nM.
